Assay [1] relates to T8-IIM cells. Kind of assay: 3[H]-thymidine incorporation assay, T8-IIM cells exposed to TGF-β. Particulars: unmodified T8-IIM cells exposed to TGF-β. Format: cell-based, human. The source says:
Prior to using human AHSG to develop a therapy to modify cells of the immune system, we had to be certain of its abilities to block the actions of TGF-β. […] The first step was to use RT-PCR to amplify from total HepG2 RNA the AHSG sequence and clone this cDNA into an expression vector driven by the SRa promoter. The resulting expression vector was called pSRα-AHSG (see map 1) [FIG. 5]. […] The first set of experiments used T8-IIM cells because the growth of these cells is known to be inhibited by TGF-β (Miyamoto, K. et al Jpn J Concer Res 82:1178 (1991)).
In order to be useful as cell based cancer therapy, cellular expression of AHSG must have the ability to antagonize the effects of TGF-β. For these experiments, we chose the T8-IIM cells because this is a CD8+cell line and its immune function is dependent on TGF-β. Exposure of unmodified T8-IIM cells to TGF-β suppressed their ability to incorporate ^3[H]-thymidine to 79±4% when compared to control. […] In these cells, the incorporation of ^3[H]-thymidine was the same as that from cells not exposed to TGF-β. This finding meant that the expression of AHSG blocked the suppressing effects of TGF-β. Since TGF-β expressing cancer cells use this mechanism to escape detection from immune system cells, this observation supported our goal to alter the inherent activity of CTLs to thus by-pass the cloaking mechanisms used by cancer cells.
Background: Incorporation of labelled thymidine or its analogues reports DNA synthesis.

For assay [2], the system named is Jurkat cells. Kind of assay: 3[H]-thymidine incorporation assay, Jurkat cells exposed to TGF-β. Particulars: control Jurkat cells exposed to TGF-β (2 ng/ml).
The test system of assay [3] is mouse spleen T-cell lymphocytes. Kind of assay: 3[H]-thymidine incorporation assay, mouse spleen T-cell lymphocytes exposed to TGF-β. Format: cell-based. Particulars: control mouse T-cell lymphocytes exposed to TGF-β. On the procedure: In humans, the PBMC provides a source of lymphocytes but in the mouse, the spleen is a more practical source of such cells. The spleen from a C57BL mouse was excised, minced, squeezed using flat top forceps and suspended in 10 ml of RPMI containing 10% FCS. The cell suspension was allowed to sit for 5 minutes at room temperature to allow the large pieces of the spleen to separate from the suspension of single cells. The supernatant yielded a suspension of single cell lymphocytes that was carefully transferred to another tube. The single cell suspension of lymphocyte cells was collected by centrifugation at 150×g for 5 min. Erythrocytes were removed by centrifugation using a discontinuous gradient of Ficoll-Hypaque. The lymphocytes were collected by removing the band of interest from the gradient and then washed with RPMI containing 5% heat inactivated FCS. These cells were cultured for 3 to 5 days in RPMI containing 4 μg/ml Concanavalin A, 5% heat inactivated FCS, 200 units/ml IL2, 5 μg/ml insulin, 10 μg/ml transferrin and 50 μM β-mercaptoethanol. Concanavalin A is a mitogen for lymphocytes.
In these studies, mouse spleen cells were treated with IL-2 and concanavalin A to stimulate the proliferation of T-cell lymphocytes. These activated T-cell lymphocytes were utilized to examine the effect of AHSG. […]

Assay [4] has as its system human CD8+ lymphocytes from peripheral blood. Kind of assay: 3[H]-thymidine incorporation assay, CD8+ cells enriched from human peripheral lymphocytes exposed to TGF-β. Format: cell-based. Particulars: native human CD8+ cells exposed to TGF-β. From the text:
Human peripheral blood mononuclear cells (PBMC) containing T lymphocytes were obtained from healthy adults under informed consent. The desired fraction of the cells enriched for T-lymphocytes were isolated using standard Ficoll-Hypaque gradient centrifugation. The specific population of the lymphocytes may be advantageously separated from PBMC using ferric beads coated with an antibody that is specific to a surface marker on the desired lymphocytes. Cytotoxic T-cells, one of the most important cells for tumor immunity, express a surface marker protein called CD8. CD8^+ cells were enriched from the total PBMC using Dynabeads coated with an antibody directed against human CD8 (Dynal Inc, NY). Lymphocytes that bound to the beads were collected using a magnet and dissociated from the ferric beads using DNase I to digest a spacer DNA molecule that linked the ferric beads to the specific IgG. Following release of the cells, the residual ferric beads were removed using a magnet. This method helped to enrich for CD8^+ cells so that the population comprised 90 to 95% of such cells when assayed using FACS analysis. The resulting population of the cells was called CD8^+ enriched cells. […]

Consider “TGF-β: active form of TGF-β1 (R&D Systems or BioShop Canada) added to lymphocytes”, for which the “3[H]-thymidine incorporation compared to control” value in assay [1] is given as 79±4%. In addition, the “3[H]-thymidine incorporation of control cells” value in assay [2] is on record as 57%. The “3[H]-thymidine incorporation compared to untreated cells” value in assay [3] stood at 79%. Also, in assay [4], the “3[H]-thymidine incorporation compared to control treated cells” value is recorded as 63+/−2%.

The record behind these values is patent US20050036994A1, “Compounds and methods for downregulating the effects of TGF-beta” (priority 2003, published 2005).
